From PubChem BioAssay (NCI)
Some of these compounds have results that are not shown, active ones among them.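 Results reflect a 48-hour exposure of cells in 96-well plates to compound at five concentrations. GI50 is the concentration that inhibits growth by half. At the TGI there is no net growth.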

Assays:
Assay in all cases: growth of human tumour cells (NCI), 48 h
786-0 renal = test system: 786-0 renal
A549 NSCLC = test system: A549 NSCLC
ACHN renal = test system: ACHN renal
BT-549 breast = test system: BT-549 breast
CAKI-1 renal = test system: CAKI-1 renal
CCRF-CEM leukemia = test system: CCRF-CEM leukemia
COLO 205 colon = test system: COLO 205 colon
DU-145 prostate = test system: DU-145 prostate
EKVX NSCLC = test system: EKVX NSCLC
HCC-2998 colon = test system: HCC-2998 colon
HCT-116 colon = test system: HCT-116 colon
HCT-15 colon = test system: HCT-15 colon
HL-60(TB) leukemia = test system: HL-60(TB) leukemia
HOP-62 NSCLC = test system: HOP-62 NSCLC
HT29 colon = test system: HT29 colon
IGROV1 ovarian = test system: IGROV1 ovarian
K-562 leukemia = test system: K-562 leukemia
KM12 colon = test system: KM12 colon
LOX IMVI melanoma = test system: LOX IMVI melanoma
M14 melanoma = test system: M14 melanoma
MALME-3M melanoma = test system: MALME-3M melanoma
MCF7 breast = test system: MCF7 breast
MDA-MB-231 breast = test system: MDA-MB-231 breast
MDA-MB-435 = test system: MDA-MB-435
MOLT-4 leukemia = test system: MOLT-4 leukemia
NCI-H226 lung = test system: NCI-H226 lung
NCI-H23 lung = test system: NCI-H23 lung
NCI-H522 lung = test system: NCI-H522 lung
NCI/ADR-RES ovarian = test system: NCI/ADR-RES ovarian
OVCAR-3 ovarian = test system: OVCAR-3 ovarian
OVCAR-5 ovarian = test system: OVCAR-5 ovarian
OVCAR-8 ovarian = test system: OVCAR-8 ovarian
PC-3 prostate = test system: PC-3 prostate
RPMI-8226 leukemia = test system: RPMI-8226 leukemia
RXF 393 renal = test system: RXF 393 renal
SF-268 CNS = test system: SF-268 CNS
SF-295 CNS = test system: SF-295 CNS
SF-539 CNS = test system: SF-539 CNS
SK-MEL-28 melanoma = test system: SK-MEL-28 melanoma
SK-MEL-5 melanoma = test system: SK-MEL-5 melanoma
SK-OV-3 ovarian = test system: SK-OV-3 ovarian
SN12C renal = test system: SN12C renal
SNB-19 CNS = test system: SNB-19 CNS
SNB-75 CNS = test system: SNB-75 CNS
SR leukemia = test system: SR leukemia
SW-620 colon = test system: SW-620 colon
T-47D breast = test system: T-47D breast
TK-10 renal = test system: TK-10 renal
U251 CNS = test system: U251 CNS
UACC-257 melanoma = test system: UACC-257 melanoma
UACC-62 melanoma = test system: UACC-62 melanoma
UO-31 renal = test system: UO-31 renal

C=C(C)C(O)(C(=O)OC1C2CCN(CC2)C1C)c1ccccc1 (centres undefined)
GI50 (786-0 renal): > 100 µM
TGI (786-0 renal): > 100 µM
GI50 (A549 NSCLC): > 100 µM
TGI (A549 NSCLC): > 100 µM
GI50 (ACHN renal): > 100 µM
TGI (ACHN renal): > 100 µM
GI50 (BT-549 breast): > 100 µM
TGI (BT-549 breast): > 100 µM
GI50 (CAKI-1 renal): > 100 µM
TGI (CAKI-1 renal): > 100 µM
GI50 (CCRF-CEM leukemia): > 100 µM
TGI (CCRF-CEM leukemia): > 100 µM
GI50 (COLO 205 colon): > 100 µM
TGI (COLO 205 colon): > 100 µM
GI50 (DU-145 prostate): > 100 µM
TGI (DU-145 prostate): > 100 µM
GI50 (EKVX NSCLC): > 100 µM
TGI (EKVX NSCLC): > 100 µM
GI50 (HCC-2998 colon): > 100 µM
TGI (HCC-2998 colon): > 100 µM
GI50 (HCT-116 colon): > 100 µM
TGI (HCT-116 colon): > 100 µM
GI50 (HCT-15 colon): > 100 µM
TGI (HCT-15 colon): > 100 µM
GI50 (HL-60(TB) leukemia): 43.4 µM
TGI (HL-60(TB) leukemia): > 100 µM
GI50 (HOP-62 NSCLC): > 100 µM
TGI (HOP-62 NSCLC): > 100 µM
GI50 (HT29 colon): > 100 µM
TGI (HT29 colon): > 100 µM
GI50 (IGROV1 ovarian): > 100 µM
TGI (IGROV1 ovarian): > 100 µM
GI50 (K-562 leukemia): > 100 µM
TGI (K-562 leukemia): > 100 µM
GI50 (KM12 colon): > 100 µM
TGI (KM12 colon): > 100 µM
GI50 (LOX IMVI melanoma): > 100 µM
TGI (LOX IMVI melanoma): > 100 µM
GI50 (M14 melanoma): > 100 µM
TGI (M14 melanoma): > 100 µM
GI50 (MALME-3M melanoma): > 100 µM
TGI (MALME-3M melanoma): > 100 µM
GI50 (MCF7 breast): > 100 µM
TGI (MCF7 breast): > 100 µM
GI50 (MDA-MB-231 breast): > 100 µM
TGI (MDA-MB-231 breast): > 100 µM
GI50 (MDA-MB-435): > 100 µM
TGI (MDA-MB-435): > 100 µM
GI50 (MOLT-4 leukemia): > 100 µM
TGI (MOLT-4 leukemia): > 100 µM
GI50 (NCI-H226 lung): > 100 µM
TGI (NCI-H226 lung): > 100 µM
GI50 (NCI-H23 lung): > 100 µM
TGI (NCI-H23 lung): > 100 µM
GI50 (NCI-H522 lung): > 100 µM
TGI (NCI-H522 lung): > 100 µM
GI50 (NCI/ADR-RES ovarian): 35.3 µM
TGI (NCI/ADR-RES ovarian): 96.4 µM
GI50 (OVCAR-3 ovarian): > 100 µM
TGI (OVCAR-3 ovarian): > 100 µM
GI50 (OVCAR-5 ovarian): > 100 µM
TGI (OVCAR-5 ovarian): > 100 µM
GI50 (OVCAR-8 ovarian): > 100 µM
TGI (OVCAR-8 ovarian): > 100 µM
GI50 (PC-3 prostate): > 100 µM
TGI (PC-3 prostate): > 100 µM
GI50 (RPMI-8226 leukemia): > 100 µM
TGI (RPMI-8226 leukemia): > 100 µM
GI50 (RXF 393 renal): > 100 µM
TGI (RXF 393 renal): > 100 µM
GI50 (SF-268 CNS): > 100 µM
TGI (SF-268 CNS): > 100 µM
GI50 (SF-295 CNS): > 100 µM
TGI (SF-295 CNS): > 100 µM
GI50 (SF-539 CNS): > 100 µM
TGI (SF-539 CNS): > 100 µM
GI50 (SK-MEL-28 melanoma): > 100 µM
TGI (SK-MEL-28 melanoma): > 100 µM
GI50 (SK-MEL-5 melanoma): > 100 µM
TGI (SK-MEL-5 melanoma): > 100 µM
GI50 (SK-OV-3 ovarian): > 100 µM
TGI (SK-OV-3 ovarian): > 100 µM
GI50 (SN12C renal): > 100 µM
TGI (SN12C renal): > 100 µM
GI50 (SNB-19 CNS): > 100 µM
TGI (SNB-19 CNS): > 100 µM
GI50 (SNB-75 CNS): > 100 µM
TGI (SNB-75 CNS): > 100 µM
GI50 (SR leukemia): > 100 µM
TGI (SR leukemia): > 100 µM
GI50 (SW-620 colon): > 100 µM
TGI (SW-620 colon): > 100 µM
GI50 (T-47D breast): > 100 µM
TGI (T-47D breast): > 100 µM
GI50 (TK-10 renal): > 100 µM
TGI (TK-10 renal): > 100 µM
GI50 (U251 CNS): > 100 µM
TGI (U251 CNS): > 100 µM
GI50 (UACC-257 melanoma): > 100 µM
TGI (UACC-257 melanoma): > 100 µM
GI50 (UACC-62 melanoma): > 100 µM
TGI (UACC-62 melanoma): > 100 µM
GI50 (UO-31 renal): 29.6 µM
TGI (UO-31 renal): > 100 µM
